# Rango-impB inh: prevents formation of the Rango-importin beta complex; Rango CFP/YFP FRET sensor + importin beta, 45 min; Potency, µM (top dose mostly 92.2 µM), for the others: at the highest dose inhibition of complex formation; 340,000 tested, 0.031% active; AID 540263; calls by dose curve;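 also: 0% = DMSO wells and 100% = buffer wells lacking importin beta; nearly all actives have a fitted effect of over 15% in size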
#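 FRET biosensor Rango (snurportin 1 IBB between N-terminal EYFP and C-terminal Cerulean), 50 nM in PBS/1 mM DTT/0.02% Tween-20/0.1% BSA, preincubated 5 min RT with compound; 0.125 microM importin beta added, 45 min RT, CFP/YFP FRET ratio read.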
# Rango release inh: inhibitors of RanGTP-induced Rango-importin beta complex dissociation; Potency, µM (titrated, usually from 46.1 µM), without a hit: at the highest dose activity change, negative = inhibition; 340,000 tested, 0.071% active; O95149+P62826; AID 540253; Biochemical FRET Rango-importin beta, RanGTP-induced dissociation; calls by dose curve; also: % of control where 0% means no effect; nearly all actives have a fitted effect of over 45% in size
#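 Rango/importin beta premix (0.1/0.25 uM final), PBS + 1 mM DTT + 0.02% Tween-20 + 0.1% BSA; cpd 5 min RT; FRET pre-read; + RanGTP-RCC1 (0.6 uM Ran, 2 mM GTP, 0.2 uM RCC1); 45 min RT; FRET post-read, ex 430, em 486/530 nm.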
# Eya2 phos inh: inhibitors of human Eya2 phosphatase activity. O00167. recombinant Eya2, OMFP fluorescence dephosphorylation (OMFP is methylfluorescein phosphate). Potency, µM (top dose mostly 76.9 µM), without a hit: top-dose activity, negative = inhibition, usual class: inhibitors. 330,000 tested, 0.006% active; also: % is scaled to controls: 0 for no effect and ±100 for the full control effect
#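 Eya2 protein (added as 0.2 uM solution) was preincubated with compound for 10 min at ambient temperature in 50 mM HEPES pH 7.5, 50 mM NaCl, 5 uM MgCl2, 0.05% BSA, 1 mM DTT. OMFP (added at 50 uM) then reacted 10 min; fluorescence read at 485/525 nm.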
# S-ASM inh: inhibitors of human secretory acid sphingomyelinase; Potency, µM (series often up to 57.5 µM), for the others: at the top dose activity change, negative = inhibition, hits mostly inhibitors; 340,000 tested, 0.006% active; placental ASM, HMU-PC fluorogenic substrate, 60 min
#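 HMU-PC0 cleavage (9 uM final) by human placental ASM, 60 min at 37 °C following 10 min compound exposure at RT; stopped at pH 10, fluorescence Ex 386/Em 447 nm.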
# Vif-APOBEC3F blk: inhibitors of Vif-A3F interaction | HeLa A3F-eYFP + Vif (tagged APOBEC3F with the HIV-1 protein that degrades it), YFP fluorescence increase | Potency, µM (doses to about 46.1 µM), without a hit: at the top dose activity, negative = active | 390,000 tested, 0.2% active | AID 602313; also: % of control where 0% means no effect; nearly all actives have a fitted effect of over 65% in size
#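 HeLa cells stably expressing Vif plus C-terminally eYFP-tagged A3F were seeded, incubated overnight at 37 deg C, dosed with compound, incubated overnight again at 37 deg C. Yellow fluorescence (Ex 488/Em 500-530) reported blocked Vif-mediated A3F-eYFP degradation.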
# Vif-A3G inh: inhibitors of Vif-APOBEC3G interaction | Q9HC16 | HeLa A3G-eYFP + Vif (tagged APOBEC3G with the HIV-1 protein that degrades it), YFP fluorescence, overnight | Potency, µM (series often up to 46.1 µM), for inactives: top-dose activity, negative = active, hits mostly inhibitors | 410,000 tested, 0.076% active | AID 602310; also: % is scaled to controls: 0 for no effect and ±100 for the full control effect; nearly all actives have a fitted effect of over 60% in size
#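 HeLa cells stably expressing Vif and C-terminally eYFP-tagged A3G, seeded overnight at 37 deg C, then exposed to compound by pintool overnight at 37 deg C. Rise in yellow fluorescence (Ex 488/Em 500-530, Acumen) marks blocked Vif-driven A3G degradation.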
# * hit, by the source's call; i = inactive; ? = inconclusive; . = no result. The list is not random: actives were taken first. Their share in the collection is about 0.34%. Unless noted, calls follow the shape of the dose curve; as a rule, active = well fitted curve in the direction sought with a large enough effect; inconclusive = small, poorly fitted or top-dose-only effect, or another doubt; inactive = no such curve, though single readings can be large; an effect the other way counts as inactive or inconclusive. Potency is read from the fitted curve at half-maximal effect.
# Labels used below – A = Rango-impB inh; B = Rango release inh; C = Eya2 phos inh; D = S-ASM inh; E = Vif-APOBEC3F blk; F = Vif-A3G inh
mol: CCSC1=NSC2=NC(=O)/C(=C\c3coc4ccccc4c3=O)C(=N)N12
  A = ?; B = ?; C = ?; D = -18.5%; E = 25.1µM*; F = ?

mol: CC(C)CC1=NN2C(=N)/C(=C\c3coc4ccccc4c3=O)C(=O)N=C2S1
  A = ?; B = ?; C = ?; D = 9.8%; E = ?; F = ?

mol: CCN1C/C(=C/c2ccc(N3CCOCC3)cc2)C(=O)/C(=C/c2ccc(N3CCOCC3)cc2)C1
  A = ?; B = ?; C = -2.2%; D = -20.6%; E = 25.1µM*; F = 10µM*

mol: CN1C/C(=C\c2ccc(N3CCOCC3)cc2)C(=O)/C(=C/c2ccc(N3CCOCC3)cc2)C1
  A = ?; B = ?; C = 1.2%; D = -9.8%; E = 25.1µM*; F = ?

mol: COC(=O)c1ccc(NC(=O)c2nc(S(=O)(=O)Cc3ccccc3F)ncc2Cl)cc1
  A = .; B = .; C = .; D = .; E = .; F = -28.6%

mol: CCOC(=O)C1=C(C)NC(C)=C(C(=O)OCC)C1c1c(F)c(F)c(F)c(F)c1F
  A = .; B = .; C = -24.5%; D = .; E = .; F = .

mol: Oc1c(C(Nc2ccccn2)c2ccccc2)ccc2cccnc12 (stereo unspecified)
  A = .; B = .; C = .; D = .; E = .; F = -16.2%

mol: CCCN1C=CC(=CC=C(C#N)C#N)C=C1
  A = ?; B = ?; C = ?; D = -17.9%; E = ?; F = 12.6µM*

mol: CC1CCCCC1NC(=O)COC(=O)c1c2c(nc3ccccc13)/C(=C\c1ccco1)CC2 (stereo unspecified)
  A = ?; B = 2.31µM*; C = .; D = 31.7%; E = -3.4%; F = -5.5%

mol: Cc1cc(C)c2oc(-c3cc(NC(=O)Cc4ccccc4)ccc3Cl)nc2c1
  A = .; B = .; C = .; D = .; E = -11.8%; F = -1.3%

mol: O=S1(=O)CCO[C@H]2CCCC[C@@H]2N1Cc1ccccc1
  A = .; B = .; C = .; D = .; E = .; F = 0.9%

mol: CC(C(=O)O)N1C(=O)C2C3CC(C2C1=O)C1C(c2ccccc2)c2sc(=O)[nH]c2SC31 (stereo unspecified)
  A = ?; B = 23.1µM*; C = -1.0%; D = 10.4%; E = -4.7%; F = -0.3%

mol: CCCC(=O)Oc1ccc2[nH]c(C(=O)c3cc4ccccc4[nH]3)cc2c1
  A = .; B = .; C = .; D = .; E = .; F = 0.2%

mol: COCCCNc1nc2ccccc2nc1NS(=O)(=O)c1ccccc1
  A = 0.1%; B = -3.2%; C = -8.0%; D = 15.9%; E = 22.4µM*; F = 0.7%

mol: COCCCNc1nc2ccccc2nc1NS(=O)(=O)c1ccc(C)cc1
  A = -7.2%; B = -11.3%; C = -27.4%; D = 16.6%; E = ?; F = -7.2%

# Three compounds from above, arranged by length of the SMILES, smallest number first.
# Labels used below – A = Rango-impB inh; B = Rango release inh; C = Eya2 phos inh; D = S-ASM inh; E = Vif-APOBEC3F blk; F = Vif-A3G inh
mol: COCCCNc1nc2ccccc2nc1NS(=O)(=O)c1ccccc1
  A = 0.1%; B = -3.2%; C = -8.0%; D = 15.9%; E = 22.4µM*; F = 0.7%

mol: CC1CCCCC1NC(=O)COC(=O)c1c2c(nc3ccccc13)/C(=C\c1ccco1)CC2 (stereo unspecified)
  A = ?; B = 2.31µM*; C = .; D = 31.7%; E = -3.4%; F = -5.5%

mol: CC(C(=O)O)N1C(=O)C2C3CC(C2C1=O)C1C(c2ccccc2)c2sc(=O)[nH]c2SC31 (stereo unspecified)
  A = ?; B = 23.1µM*; C = -1.0%; D = 10.4%; E = -4.7%; F = -0.3%

# Next part
# Labels used below – A = Rango-impB inh; B = Rango release inh; C = Eya2 phos inh; D = S-ASM inh; E = Vif-APOBEC3F blk; F = Vif-A3G inh
mol: Cc1ccc(/C=C2/NC(=O)N(Cc3ccccc3)C2=O)s1
  A = ?; B = -14.7%; C = -3.8%; D = -1.8%; E = 22.4µM*; F = ?

mol: COc1ccc(CN2[C@@H](CC(=O)O)c3ccc(/C=C/C(=O)O)cc3S2(=O)=O)cc1
  A = .; B = .; C = .; D = .; E = .; F = 1.0%

mol: COc1ccc2[nH]c3c(c2c1)CCNC3c1ccc([N+](=O)[O-])o1 (stereo unspecified)
  A = ?; B = ?; C = 19.8%; D = -14.2%; E = 25.1µM*; F = ?

mol: COc1ccc2[nH]c3c(c2c1)CCNC3C1CC=C(C)CC1 (stereo unspecified)
  A = -2.7%; B = -5.0%; C = -2.2%; D = 0.0%; E = 2.9%; F = ?

mol: CCOC(=O)C1=C(O)c2ccccc2C(=O)/C1=C\c1ccc(C)cc1
  A = ?; B = ?; C = 3.0%; D = 1.8%; E = 25.1µM*; F = ?

mol: CC(C)(C)n1ncc2c(=O)n(Cc3c(Cl)cccc3Cl)cnc21
  A = .; B = .; C = .; D = .; E = .; F = 1.9%

mol: CCOC(=O)c1sc(NC(=S)NC(=O)c2ccco2)nc1C
  A = 0.0%; B = -11.4%; C = -1.8%; D = 0.2%; E = 22.4µM*; F = -0.7%

mol: COc1ccc2nc(NC(=S)NC(=O)c3ccco3)sc2c1
  A = 2.5%; B = -8.3%; C = 5.8%; D = -0.2%; E = 10µM*; F = 0.5%

mol: Cn1c(=O)oc2cc(S(=O)(=O)NC(Cc3ccccc3)C(=O)Nc3ccc(F)cc3)ccc21 (stereo unspecified)
  A = .; B = .; C = .; D = .; E = -20.1%; F = -4.2%

mol: C(=Nc1cnc2ccccc2c1)c1cccnc1
  A = .; B = .; C = .; D = .; E = .; F = 5.9%

mol: COC1=C(Br)C(=O)c2ncccc2C1=O
  A = -5.2%; B = -0.1%; C = .; D = -2.3%; E = 11.2µM*; F = -17.7%

mol: COc1c(OC(C)=O)c(=O)n2c3ccccc3c3ccnc1c32
  A = 20.6µM*; B = 0.4%; C = 1.3%; D = -4.6%; E = -1.4%; F = -0.2%

mol: Cc1ccccc1NS(=O)(=O)c1ccc2c3c(cccc13)C(=O)N2C
  A = ?; B = ?; C = -7.2%; D = -3.4%; E = -1.4%; F = -11.5%

mol: CN1C(=O)c2cccc3c(S(N)(=O)=O)ccc1c23
  A = ?; B = 0.581µM*; C = 7.5%; D = 83.0%; E = -6.9%; F = -5.1%

mol: Cc1ccc2ccc3cc(C(=O)N4CCN(c5ccccc5F)CC4)nc3c2[nH]1
  A = .; B = .; C = .; D = .; E = -1.7%; F = -5.1%

mol: Cc1ccc2ccc3cc(C(=O)Nc4ccc(C)c(F)c4)nc3c2[nH]1
  A = .; B = .; C = .; D = .; E = ?; F = 12.6µM*

mol: CCN1CCN(c2cc(N3CCN(C(=O)c4ccco4)CC3)c3c4c(onc24)-c2ccccc2C3=O)CC1
  A = 32.6µM*; B = ?; C = 5.5%; D = -22.4%; E = ?; F = ?

mol: COc1cc2c3nnc(-c4ccc(F)cc4)c-3cn(Cc3cccc(F)c3)c2cc1OC
  A = ?; B = ?; C = -2.3%; D = 42.1%; E = 6.31µM*; F = 7.94µM*

mol: O=c1c2ccccc2n(Cc2cccc(F)c2)c(=O)n1Cc1ccccc1Cl
  A = .; B = .; C = .; D = .; E = -1.5%; F = 3.6%

mol: COc1ccc(NC(=O)CSc2nnc(C)c3ccccc23)cc1
  A = 1.0%; B = -19.1%; C = 11.1%; D = -0.5%; E = -1.5%; F = -28.5%

mol: COc1ccc(NC(=O)CSc2ccc3c4c(cccc24)C(=O)c2ccccc2-3)cc1
  A = ?; B = ?; C = 10.8%; D = -3.3%; E = 11.2µM*; F = ?

mol: N#Cc1cccc(NC(=O)CSc2ccc3c4c(cccc24)C(=O)c2ccccc2-3)c1
  A = ?; B = ?; C = -1.7%; D = -3.6%; E = 11.2µM*; F = 2.82µM*

mol: CCC(NC(=O)OC(C)(C)C)C(=O)Oc1ccc2c3c(c(=O)oc2c1)CCC3 (stereo unspecified)
  A = ?; B = 11.6µM*; C = 9.2%; D = i; E = -2.5%; F = -5.0%

mol: CC(=O)Oc1ccc2c3c(c(=O)oc2c1)CCCC3
  A = ?; B = 20.6µM*; C = -2.3%; D = i; E = 7.5%; F = -1.5%

mol: Cc1cc(F)ccc1NC(=O)C1CCC(CNS(=O)(=O)c2ccc3c(c2)CCCC(=O)N3)CC1 (stereo unspecified)
  A = .; B = .; C = .; D = .; E = 4.5%; F = 1.8%

mol: Cc1ccc(CNC(=O)Cn2cc(C(=O)c3ccc(Cl)cc3)c(=O)c3ccc(C)nc32)cc1
  A = .; B = .; C = .; D = .; E = 12.6µM*; F = -16.5%

mol: N#C/C(=C/c1ccc(N2CCCCC2)o1)c1cccc(F)c1
  A = ?; B = ?; C = 15.5%; D = ?; E = 10µM*; F = ?

mol: COC(=O)c1ccc2nc(Nc3nc4ccc(F)cc4s3)sc2c1
  A = ?; B = 13µM*; C = -11.2%; D = i; E = -19.4%; F = ?

mol: COc1ccccc1NS(=O)(=O)c1cc([N+](=O)[O-])ccc1N/N=C/c1c[nH]c2ccccc12
  A = ?; B = ?; C = -7.8%; D = -22.9%; E = 11.2µM*; F = 11.2µM*

mol: O=[N+]([O-])c1ccc(N/N=C/c2c[nH]c3ccccc23)cc1
  A = 20.6µM*; B = ?; C = 0.5%; D = -22.3%; E = 12.6µM*; F = 7.94µM*

# Screening results as filed in PubChem.
